From US8921306B2, “Nociceptin mimetics” (The University of Queensland, priority 2010, dated 2014)
Like-named read-outs stand apart in the source and are kept apart here.

Legend:
[1] = molecular target: T1, ORL-1 receptor (Mus musculus, UniProt P35377); test: Antagonist functional activity assessed by ERK phosphorylation (pERK) in Neuro-2a cells challenged with 100 nM nociceptin(1-17)-NH2; type: cell-based; settings: for Emax: N2a, antagonist pERK, controls PBS (100%) and 100 nM nociceptin1-17-NH2 (100%)
T1 construct: Neuro-2a cells were a gift from Professor John Mattick's laboratory; endogenous in cells; host or cells: Neuro-2a cells
Description: Neuro-2a cells were a gift from Professor John Mattick's laboratory (Institute of Molecular Bioscience, University of Queensland) and were cultured in Gibco® DMEM (Invitrogen, CA, USA) supplemented with 10% FBS (Invitrogen, CA, USA), GIBCO® Pen/Strep (50 units/mL penicillin and 50 μg/mL streptomycin, Invitrogen, CA, USA) and GIBCO® NEAA (1× concentration, Invitrogen, CA, USA). Cells were split 1:10 every 3 days.
All cells were incubated at 37° C. and 5% CO2. When treated with pertussis toxin (PTX, catalogue number P7208, Sigma-Aldrich, NY, USA), cells were incubated with 500 ng/mL for 15 hours before use. Cells treated with MEK inhibitor PD98059 (catalogue number PHZ1164, Invitrogen, CA, USA) were preincubated with 50 μM for 1 hour before use.
Cells were placed in 12-well plates (NUNC™, NY, USA) and allowed to adhere for 24-36 h. […] For agonist assays, cells were challenged with compounds for 35 minutes and incubated at 37° C. (5% CO2).
Membranes were washed 3×10 minutes with TBE (with 0.1% Tween-20) and incubated with a primary antibody. For pERK, rabbit polyclonal ERK1+2 [pTpY185/187] […] Instead, rabbit IgG Phospho-ERK1 (T202/Y204)/ERK2 (T185/Y187) (1:2000, catalogue number AF1018, R&D Systems, MN, USA) was used. […] After multiple washes, the membranes were developed using ECL Detection Solution (Amersham Biosciences) and visualized using photographic film. Radiography was quantified using ImageJ (ImageI 1.36b, NIH).
pERK and total ERK concentrations were determined using a modified protocol for the AlphaScreen Surefire Assay. The modified protocol used half the volume of reagents recommended in the manufacturers' protocol with 2 μL of cell extract in both pERK and total ERK assays. The ratio of pERK to total ERK was determined using equation 1 and normalized to control. For agonist responses, the controls used were PBS (0%) and 1 μM nociceptin1-17-OH (100%). For antagonist responses, the controls used were PBS (100%) and 100 nM nociceptin1-17-NH2 (100%).
Concentration responses were analyzed using non-linear regression (variable slope) (Prism5, GraphPad Software) and data is presented as either EC50 (for agonists) or IC50 (antagonists).
Helix constrained and unconstrained peptides were pre-screened using the pERK assay at a single concentration.

[2] = circular dichroism; settings: 10 mM phosphate; pH 7.4; 22 °C; 50-400 uM
[3] = Circular dichroism spectroscopy (helicity); type: physicochemical; settings: for θ222/208 (buffer) / fH (buffer): 10 mM phosphate buffer (pH 7.4) at 22° C.; for fH (buffer): fH calculated based on θ at 222 nm; for fH (TFE*): buffer: TFE 50:50, 22° C.
Description: CD measurements were performed using a Jasco model J-710 spectropolarimeter which was routinely calibrated with (1S)-(+)-10-camphorsulfonic acid. A stock solution of 1-2 mg of peptide was dissolved in 1 mL of water. Separate 500 μL solutions of 50, 100, 200 and 400 μM were then prepared using an appropriate amount of stock solution and making up the different with 10 mM Phosphate Buffer (final pH 7.1). […] Jasco quartz cell over the wavelength range 260-185 nm at 100 nm/min. with a bandwidth of 1.0 nm, response time of 2 s, resolution step width of 1 nm and sensitivity of 20-50 Mdeg. Each spectrum represents the average of 5 scans. Spectra were analyzed using the spectral analysis software and smoothed using ‘adaptive smoothing’ function. Concentrations were determined using the PULCON method. [Wider, Dreier, 2006, J. Am. Chem. Soc. 128:2571-2576]
The incorporation of two lactam bridges induced appreciable helicity, monitored at 222 nm, and was calculated to range between 32-77% helicity. By comparison, the unconstrained nociceptin peptides (SEQ ID NOs:1-5, 9 and 10) had less than 6% α-helicity in water. […] This is due to the fact that residues 1-6 (or 1-5 in 6) are not constrained and would not be expected to be in a helical conformation as they feature amino acids that have little or no propensity to adopt helices in proteins. To determine whether the exocyclic regions were the sole cause of low helicity, SEQ ID NO:15 without the N-terminal message was investigated further. This 12-residue peptide features eight residues (K, R, Q) known to favor α-helicity in proteins, and was 60% helical in phosphate buffer by CD spectral analysis. The serine residue is conserved within the sequence of many of these peptides and is known to be a helix breaker.

[4] = tested on: C57BL/6 mice; test: Anti-nociceptive activity in mice, hot plate front paw withdrawal latency; type: in vivo
Description: A similar dose has been used before by others for nociceptin (NC, SEQ ID NO:1) itself in similar assays with some activity (EC50=200 pmol).
Mice (C57BL/6; n=45) were brought into the experimental room for at least 30 minutes prior to testing. They were then individually placed on an accredited hot plate heated to 53±0.54° C. and timed until any front paw withdrawal, licking or jumping behaviour was recorded (baseline response). Mice were not left on the hot plate for longer than 30 sec. […] Mice were then individually placed on the hot plate again at time points 1, 5, 15, 30, 45 and 60 min post injection. Each test was video monitored.
In a parallel experiment, agonist of SEQ ID NO:8 was co-administered with the helical antagonist of SEQ ID NO:13, where upon the increased paw withdrawal latency produced by agonist of SEQ ID NO:8 alone was abolished. This confirms that the helix constrained peptide of SEQ ID NO:13 is a potent antagonist of SEQ ID NO:8 in vivo.

[5] = antagonist pERK activity vs 100 nM nociceptin(1-17)-NH2, IA = inactive, maximum concentration tested 100 nM, read-out: IC50
[6] = antagonist pERK activity, 15 minutes pre-incubation, 100 nM nociceptin(1-17)-NH2, read-out: -log IC50 ± SEM (converted)
[7] = antagonist pERK activity, printed as log IC50 with negative sign, read-out: log IC50 (converted)

| SMILES | Emax [1] [%] | IC50 [1, 5] [µM] | θ222/208 (buffer) [3] | fH (buffer) [3] | IC50 [1, 6] [µM] | other results |
| --- | --- | --- | --- | --- | --- | --- |
| C[C@@H](O)[C@H](NC(=O)[C@H](Cc1ccc(F)cc1)NC(=O)CNC(=O)CNC(=O)CNCc1ccccc1)C(=O)NCC(=O)N[C@H]1CCCCNC(=O)C[C@@H](C(=O)N[C@@H](CCCNC(=N)N)C(=O)N[C@@H](CCCCN)C(=O)N[C@H]2CCCCNC(=O)C[C@@H](C(N)=O)NC(=O)[C@H](CCC(N)=O)NC(=O)[C@H](CC(N)=O)NC(=O)[C@H](CCCCN)NC2=O)NC(=O)[C@H](CO)NC(=O)[C@H](CCCCN)NC(=O)[C@H](CCCNC(=N)N)NC1=O [compound 13] | 89 ± 5 | 0.00755 | 0.94 | 0.39 | – | helicity [2]: 0.39 frac |
| CC(C)C[C@H](NC(=O)[C@H](CCCCN)NC(=O)[C@H](CCCNC(=N)N)NC(=O)[C@H](C)NC(=O)[C@H](CO)NC(=O)[C@H](CCCCN)NC(=O)[C@H](CCCNC(=N)N)NC(=O)[C@H](C)NC(=O)CNC(=O)[C@@H](NC(=O)[C@H](Cc1ccccc1)NC(=O)CNC(=O)CNC(=O)CNCc1ccccc1)[C@@H](C)O)C(=O)N[C@@H](CCCCN)C(=O)N[C@@H](CC(N)=O)C(=O)N[C@@H](CCC(N)=O)C(N)=O [compound 9] | 103 ± 6 | 0.039 | 0.05 | 0.04 | 0.0398 | fH (TFE*) [3]: 0.24 |
| C[C@@H](O)[C@H](NC(=O)[C@H](Cc1ccccc1)NC(=O)CNC(=O)CNC(=O)CNCc1ccccc1)C(=O)NCC(=O)N[C@H]1CCCCNC(=O)C[C@@H](C(=O)N[C@@H](CCCNC(=N)N)C(=O)N[C@@H](CCCCN)C(=O)N[C@H]2CCCCNC(=O)C[C@@H](C(N)=O)NC(=O)[C@H](CCC(N)=O)NC(=O)[C@H](CC(N)=O)NC(=O)[C@H](CCCCN)NC2=O)NC(=O)[C@H](CO)NC(=O)[C@H](CCCCN)NC(=O)[C@H](CCCNC(=N)N)NC1=O [SEQ ID NO:12, BzlGGGFTG[KRKSD]RK[KKNQD]-NH2] | – | – | – | – | – | improvement in antagonist activity (fold) ([1]; constrained relative to unconstrained analogue): three-fold |
| CC(C)C[C@H](NC(=O)[C@H](CCCCN)NC(=O)[C@H](CCCNC(=N)N)NC(=O)[C@H](C)NC(=O)[C@H](CO)NC(=O)[C@H](CCCCN)NC(=O)[C@H](CCCNC(=N)N)NC(=O)[C@H](C)NC(=O)CNC(=O)[C@@H](NC(=O)[C@H](Cc1ccccc1)NC(=O)CNC(=O)CNC(=O)CNCc1ccccc1)[C@@H](C)O)C(=O)N[C@@H](CCCCN)C(=O)N[C@@H](CC(N)=O)C(=O)N[C@@H](CCC(N)=O)C(N)=O [SEQ ID NO:9] | – | 0.039 | – | – | – | IC50 [1, 7]: 0.0398 µM |
| CC(C)C[C@H](NC(=O)[C@H](CCCCN)NC(=O)[C@H](CCCNC(=N)N)NC(=O)[C@H](C)NC(=O)[C@H](CO)NC(=O)[C@H](CCCCN)NC(=O)[C@H](CCCNC(=N)N)NC(=O)[C@H](C)NC(=O)CNC(=O)[C@@H](NC(=O)[C@H](Cc1ccc(F)cc1)NC(=O)CNC(=O)CNC(=O)CNCc1ccccc1)[C@@H](C)O)C(=O)N[C@@H](CCCCN)C(=O)N[C@@H](CC(N)=O)C(=O)N[C@@H](CCC(N)=O)C(N)=O [compound 10] | 101 ± 4 | – | 0.02 | 0.03 | 0.0324 | fH (TFE*) [3]: 0.25 |
| C[C@@H](O)[C@H](NC(=O)[C@H](Cc1ccccc1)NC(=O)CNC(=O)CNC(=O)CNCc1ccccc1)C(=O)NCC(=O)N[C@H]1CCCCNC(=O)C[C@@H](C(=O)N[C@@H](CCCNC(=N)N)C(=O)N[C@@H](CCCCN)C(=O)N[C@H]2CCCCNC(=O)C[C@@H](C(N)=O)NC(=O)[C@H](CCC(N)=O)NC(=O)[C@H](CC(N)=O)NC(=O)[C@H](CCCCN)NC2=O)NC(=O)[C@H](CO)NC(=O)[C@H](CCCCN)NC(=O)[C@H](CCCNC(=N)N)NC1=O [compound 12] | 98 ± 6 | – | 0.93 | 0.41 | 0.0123 | – |
| CC(C)C[C@@H]1NC(=O)[C@H](CCCCN)NC(=O)[C@H](CCCNC(=N)N)NC(=O)[C@@H](NC(=O)[C@@H]2CC(=O)NCCCC[C@H](NC(=O)[C@@H](NC(=O)[C@H](Cc3ccccc3)NC(=O)CNC(=O)CNC(=O)CNCc3ccccc3)[C@@H](C)O)C(=O)N[C@@H](C)C(=O)N[C@@H](CCCNC(=N)N)C(=O)N[C@@H](CCCCN)C(=O)N2)CCCCNC(=O)C[C@@H](C(N)=O)NC1=O [compound 14] | – | – | – | – | > 0.1 | helicity [2]: 0.77 frac |
| C[C@H](NC(=O)CNC(=O)[C@@H](NC(=O)[C@H](Cc1ccccc1)NC(=O)CNC(=O)CNC(=O)CNCc1ccccc1)[C@@H](C)O)C(=O)N[C@@H](CCCN=C(N)N)C(=O)N[C@@H](CCCCN)C(=O)N[C@@H](CO)C(=O)N[C@@H](C)C(=O)N[C@@H](CCCN=C(N)N)C(=O)N[C@@H](CCCCN)C(N)=O [SEQ ID NO:11, reference compound] | – | – | – | – | – | IC50 [1, 7]: 0.575 µM |
| CC(C)C[C@H](NC(=O)[C@H](CCCCN)NC(=O)[C@H](CCCNC(=N)N)NC(=O)[C@H](C)NC(=O)[C@H](CO)NC(=O)[C@H](CCCCN)NC(=O)[C@H](CCCNC(=N)N)NC(=O)[C@H](C)NC(=O)CNC(=O)[C@@H](NC(=O)[C@H](Cc1ccccc1)NC(=O)CNC(=O)CNC(=O)[C@@H](N)Cc1ccccc1)[C@@H](C)O)C(=O)N[C@@H](C)C(=O)N[C@@H](CC(N)=O)C(=O)N[C@@H](CCC(N)=O)C(N)=O [SEQ ID NO:2, reference compound] | – | – | – | – | – | rise of thermal nociceptive threshold ([4]; 200 pmol per front paw, at 1 min): ~20%; duration of anti-nociceptive effect ([4]; 200 pmol per front paw, hot plate): < 5 min; ED50 ([4]; anti-nociceptive effect, intraplantar into front paws, hot plate 53° C., C57BL/6 mice): 184 pmol |
